For one data set, the target named is DAT (Rattus norvegicus (Rat), UniProt P23977). The data set is described as follows: Dopamine Transporter Binding Assay ([3H]WIN 35428, rat striatal membranes).
For data set [1] the following is noted: mouse plasma.
Another data set concerns the target human SERT T497A mutant (Homo sapiens (Human), UniProt P31645, T497A). The data set is described as follows: cell-based. The following applies: COS-7, read-out: hSERT T497A Ki [S.E. interval] (nM).
Setting [2] is: selectivity ratio of Ki values, rat brain membranes.

Protein sequences, listed by entry. Tags and fused reporters are not part of them.
UniProt P23977, whole entry: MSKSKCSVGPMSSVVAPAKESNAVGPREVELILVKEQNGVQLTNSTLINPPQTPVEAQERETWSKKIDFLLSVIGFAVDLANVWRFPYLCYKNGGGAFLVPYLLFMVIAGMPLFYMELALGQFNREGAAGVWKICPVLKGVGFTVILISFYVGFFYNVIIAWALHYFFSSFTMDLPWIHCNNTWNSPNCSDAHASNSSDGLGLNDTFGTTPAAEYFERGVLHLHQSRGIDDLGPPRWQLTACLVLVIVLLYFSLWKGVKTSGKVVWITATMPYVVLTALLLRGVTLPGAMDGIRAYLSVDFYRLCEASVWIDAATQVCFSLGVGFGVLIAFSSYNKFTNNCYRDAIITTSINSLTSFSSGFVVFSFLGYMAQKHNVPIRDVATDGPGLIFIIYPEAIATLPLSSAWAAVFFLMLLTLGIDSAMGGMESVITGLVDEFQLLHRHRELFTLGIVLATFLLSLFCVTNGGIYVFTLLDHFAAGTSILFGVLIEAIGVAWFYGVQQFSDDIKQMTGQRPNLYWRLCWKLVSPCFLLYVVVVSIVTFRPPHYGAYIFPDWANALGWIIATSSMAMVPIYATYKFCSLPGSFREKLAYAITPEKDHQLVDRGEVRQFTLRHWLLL

We go through 7 molecules from US10913711B2, “Potent and selective inhibitors of monoamine transporters; method of making; and use thereof” (priority 2013, dated 2021).

Where two headings read alike, the source gives them in different places.

For `CCCCNCC[S+]([O-])C(c1ccccc1)c1ccccc1` (stereo not shown) [Compound 5b, N-(2-(benzhydrylsulfinyl)ethyl)butan-1-amine], at DAT (setting [2]), the NET/DAT is on record as 89.
`O=C(CSC(c1ccc(Br)cc1)c1ccc(Br)cc1)NCCCCc1ccccc1` [Compound 2z, 2-((Bis(4-bromophenyl)methyl)thio)-N-(4-phenylbutyl)acetamide] registered an SERT/DAT on DAT of at least 241.
For the molecule `Fc1ccc(C(SCCNCCCc2ccccc2)c2ccc(F)cc2)cc1` [Compound 4g, N-(2-((bis(4-fluorophenyl)methyl)thio)ethyl)-3-phenylpropan-1-amine], the “terminal half-life (t1/2)” value in data set [1] (10 mg/kg) is on record as “approximately 1 hour”. This molecule returned a t1/2 in data set [1] (10 mg/kg I.V.) of 59.8 min.
Turning to `CNC(=O)CSC(c1ccccc1)c1ccccc1` [Compound 2g, 2-(Benzhydrylthio)-N-methylacetamide], the inhibition at 100 µM on human SERT T497A mutant is under 50%.
Turning to `O=C(C[S+]([O-])C(c1ccc(Br)cc1)c1ccc(Br)cc1)NCCCc1ccccc1` (stereo not shown) [Compound 3g, 2-(Bis(4-bromophenyl)methylsulfinyl)-N-(3-phenylpropyl)acetamide], the “DAT:SERT ratio” value at DAT (ratio of binding affinities, rat brain membranes) was 1.4.
Consider `CCCCNCCSC(c1ccccc1)c1ccccc1` [Compound 4e, N-(2-(benzhydrylthio)ethyl)butan-1-amine], for which, at DAT (setting [2]), the NET/DAT worked out at 36 and the SERT/DAT worked out at 18.
With `O=C(CSC(c1ccc(Br)cc1)c1ccc(Br)cc1)NCCCc1ccccc1` [Compound 2x, 2-((Bis(4-bromophenyl)methyl)thio)-N-(3-phenylpropyl)acetamide], on DAT (setting [2]), the NET/DAT is given as at least 149 and the SERT/DAT is recorded as at least 249.
